These results are taken from PubChem BioAssay AID489030 (Sanford-Burnham Center for Chemical Genomics, 2010).

By UniProt entry, the sequences of proteins in these tests, tags left out.
UniProt O14727, whole entry: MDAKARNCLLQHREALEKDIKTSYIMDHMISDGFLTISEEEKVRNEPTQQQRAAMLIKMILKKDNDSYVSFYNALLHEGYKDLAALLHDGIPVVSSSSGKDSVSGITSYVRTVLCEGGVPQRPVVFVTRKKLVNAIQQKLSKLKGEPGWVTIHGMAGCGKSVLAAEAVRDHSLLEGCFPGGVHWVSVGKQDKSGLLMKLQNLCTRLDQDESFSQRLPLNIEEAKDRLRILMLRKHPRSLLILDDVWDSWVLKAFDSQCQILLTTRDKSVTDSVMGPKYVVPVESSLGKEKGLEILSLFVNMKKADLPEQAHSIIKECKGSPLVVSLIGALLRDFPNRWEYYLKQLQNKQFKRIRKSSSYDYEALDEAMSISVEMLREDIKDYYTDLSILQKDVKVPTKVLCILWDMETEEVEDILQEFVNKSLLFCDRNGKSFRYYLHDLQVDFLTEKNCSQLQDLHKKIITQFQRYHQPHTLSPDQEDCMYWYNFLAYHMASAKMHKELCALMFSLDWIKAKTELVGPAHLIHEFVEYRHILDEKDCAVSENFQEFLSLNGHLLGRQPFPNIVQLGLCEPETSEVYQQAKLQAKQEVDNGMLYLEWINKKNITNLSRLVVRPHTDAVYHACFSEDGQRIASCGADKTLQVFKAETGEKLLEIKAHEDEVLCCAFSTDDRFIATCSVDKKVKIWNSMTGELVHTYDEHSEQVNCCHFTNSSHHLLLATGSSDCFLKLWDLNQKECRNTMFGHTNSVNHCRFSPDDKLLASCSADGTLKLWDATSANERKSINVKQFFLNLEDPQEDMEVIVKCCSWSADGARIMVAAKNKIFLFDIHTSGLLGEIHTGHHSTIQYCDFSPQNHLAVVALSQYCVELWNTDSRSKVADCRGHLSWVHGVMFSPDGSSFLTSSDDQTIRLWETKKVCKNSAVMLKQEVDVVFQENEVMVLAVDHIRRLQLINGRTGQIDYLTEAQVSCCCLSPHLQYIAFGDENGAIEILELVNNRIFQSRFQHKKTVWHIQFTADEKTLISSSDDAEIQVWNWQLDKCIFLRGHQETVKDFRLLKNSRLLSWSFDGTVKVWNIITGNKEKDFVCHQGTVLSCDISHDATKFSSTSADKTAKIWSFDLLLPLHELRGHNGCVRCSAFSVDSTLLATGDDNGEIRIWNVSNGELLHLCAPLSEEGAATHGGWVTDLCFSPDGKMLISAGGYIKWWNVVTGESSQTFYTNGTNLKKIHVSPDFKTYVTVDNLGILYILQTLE

The entries are a selection whose mix differs from that of the whole data set. The source made the active and inactive calls. How the source made its calls: active means inhibition of at least 40% at 20 µM; inactive means the rest.

For the test, the target named is Apoptotic protease-activating factor 1 (Homo sapiens) (UniProt O14727). Put plainly: blockers of Apaf-1-driven caspase-3 activation – biochemical, DEVD-Rh110 fluorescence, uHTS, primary screen (AID 489030).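 Further: plate controls were DMSO wells for no effect and DEVD-CHO caspase inhibitor wells for full effect.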 The following applies: reconstituted apoptosome caspase-3 activity, at 20 µM, active compounds read high.
For `Cc1cc(C)cc(OP(C)(=O)Nc2ccccn2)c1` (stereo unspecified), the inhibition – broadly, the drop in the measured response relative to a control, in per cent – is inactive: -1.83%.
Consider `CP(=O)(Nc1cccc(Br)c1)Oc1ccccc1` (stereo unspecified), for which the inhibition is inactive: -2.92%.
`Cc1ccc(C)c(NP(C)(=O)Oc2ccccc2)c1` (stereo unspecified): the inhibition was inactive: 7.56%.
Turning to `COc1ccccc1OP(C)(=O)Nc1cccc(Br)c1` (stereo unspecified), the inhibition was inactive: 3.48%.
Take `Cc1cc(C)cc(OP(C)(=O)Nc2ccc(C)cc2C)c1` (stereo unspecified): the inhibition is inactive: -6.08%.
Then `CCOC(=O)c1ccc(NP(C)(=O)Oc2cc(C)cc(C)c2)cc1` (stereo unspecified), with inactive: -0.64%.
Turning to `CC1=NCCc2c1[nH]c1ccccc21.O=[N+]([O-])c1cc([N+](=O)[O-])c(O)c([N+](=O)[O-])c1`, the inhibition was inactive: 4.61%.
Then `O=C(O)c1cccc(Nc2c([N+](=O)[O-])cc([N+](=O)[O-])cc2[N+](=O)[O-])c1`, with inactive: 13.8%.
Take `CN1CCCCC1COC(=O)C1(O)c2ccccc2CCc2ccccc21` (stereo unspecified): the inhibition is inactive: -0.974%.
As to `COc1ccccc1OP(C)(=O)Nc1c(C)cccc1C` (stereo unspecified), the inhibition is inactive: 4.24%.
Then `CCCOc1ccc(NP(C)(=O)Oc2ccc(Cl)cc2)cc1` (stereo unspecified), with inactive: 13.9%; and `CP(=O)(Nc1ccc(SC(F)(F)F)cc1)Oc1ccccc1` (stereo unspecified), with inactive: 4.91%.
Then `CCOC(=O)C(CC)C1=NC(C)(C)Cc2ccccc21.O=[N+]([O-])c1cc([N+](=O)[O-])c(O)c([N+](=O)[O-])c1` (stereo unspecified), with inactive: -14.5%; and `CC1=C2N=C(C=C3N=C(C(C)=C4[N-][C@@](C)([C@@H]5N=C1[C@](C)(CCC(=O)NC[C@@H](C)OP(=O)([O-])O[C@H]1[C@@H](O)[C@@H](n6cnc7cc(C)c(C)cc76)O[C@@H]1CO)[C@H]5CC(N)=O)[C@@](C)(CC(N)=O)[C@@H]4CCC(N)=O)[C@@](C)(CC(N)=O)[C@@H]3CCC(N)=O)C(C)(C)[C@@H]2CCC(N)=O.[C-]#N.[Co+3]`, with active: 99.1%.
Turning to `O=[N+]([O-])c1cc([N+](=O)[O-])c(Nc2nnnn2CCO)c([N+](=O)[O-])c1`, the inhibition is inactive: -0.183%.
Take `O=[N+]([O-])c1cc([N+](=O)[O-])c(-c2cnn(-c3ccccc3)c2)c([N+](=O)[O-])c1`: the inhibition was inactive: -6.66%.
`Cc1nc2ccc3ccccc3c2s1.O=[N+]([O-])c1cc([N+](=O)[O-])c(O)c([N+](=O)[O-])c1`: the inhibition is inactive: 15.4%.
As to `O=[N+]([O-])c1cc([N+](=O)[O-])c(-n2nnc3ccccc32)c([N+](=O)[O-])c1`, the inhibition is inactive: 10.6%.
Consider `CCOP(C)(=S)SCC(=O)NC(C)C(=O)O` (stereo unspecified), for which the inhibition was inactive: -5.47%.
As for `O=[N+]([O-])c1cc([N+](=O)[O-])c(O)c([N+](=O)[O-])c1.c1ccc(Oc2ccncc2)cc1`, the inhibition was inactive: 0.656%.
`CCOC(=O)c1ccc(NP(C)(=O)Oc2ccc(OC)cc2)cc1` (stereo unspecified): the inhibition is inactive: -7.26%.
On to `CP(=O)(Nc1ccccn1)Oc1ccc(Cl)cc1` (stereo unspecified), for which the inhibition was inactive: -3.76%.
With `CP(=O)(Oc1ccccc1)OC(c1ccccc1)C(F)(F)F` (stereo unspecified), the inhibition is inactive: 15.7%.
`CP(=O)(Nc1ccc(SC(F)(F)F)cc1)Oc1ccc(Cl)cc1` (stereo unspecified): the inhibition was inactive: 10.4%.
Then `Cc1cccc(C)c1OP(C)(=O)Nc1ccc(SC(F)(F)F)cc1` (stereo unspecified), with inactive: 28.5%; and `Cc1cc(C)cc(OP(C)(=O)Nc2ccc(SC(F)(F)F)cc2)c1` (stereo unspecified), with inactive: 11.2%; and `CP(=O)(NC(=O)Nc1ccccc1)Oc1ccccc1` (stereo unspecified), with inactive: -9.35%.
Under `CCc1ccc(OP(C)(=O)N2CCN(c3ccc([N+](=O)[O-])cc3)CC2)cc1` (stereo unspecified) stands inactive: 1.54%; under `CP(=S)(Nn1cnnc1)Oc1ccccc1` (stereo unspecified), inactive: -4.82%.
As to `COc1ccccc1OP(C)(=O)Nc1ccccc1` (stereo unspecified), the inhibition was inactive: -0.127%.
Take `CP(=O)(Nc1ccccc1Br)Oc1ccccc1` (stereo unspecified): the inhibition is inactive: -2.17%.
Then `CCOC(=O)c1ccc(NP(C)(=O)Oc2ccccc2)cc1` (stereo unspecified), with inactive: -5.6%; and `Cc1ccc(NP(C)(=O)Oc2ccccc2)c(C)c1` (stereo unspecified), with inactive: 0.101%.
Then `COc1ccccc1OP(C)(=O)Nc1ccc(C)cc1` (stereo unspecified), with inactive: 1.08%; and `COc1ccc(OP(C)(=O)Nc2cccc(F)c2)cc1` (stereo unspecified), with inactive: 4.3%; and `COc1ccccc1OP(C)(=O)Nc1cc(Cl)ccc1C` (stereo unspecified), with inactive: -0.578%.
Then `Cc1cc(C)cc(OP(C)(N)=O)c1` (stereo unspecified), with inactive: -0.464%; and `O=[N+]([O-])c1cc([N+](=O)[O-])c(Nc2cccnc2)c([N+](=O)[O-])c1`, with inactive: 7.03%; and `Cc1cccc(C)c1OP(C)(N)=O` (stereo unspecified), with inactive: -6.25%.
As to `CC(C)(C)c1ccc(OP(C)(=O)Nc2ccc(SC(F)(F)F)cc2)cc1` (stereo unspecified), the inhibition is inactive: 25.2%.
Turning to `CCN(CC)CCCOC(=O)C(O)(c1ccccc1)c1ccccc1`, the inhibition was inactive: -2.47%.
Turning to `Cc1c(NP(C)(=O)Oc2ccc(C(C)C)cc2)c(=O)n(-c2ccccc2)n1C` (stereo unspecified), the inhibition was inactive: -2.87%.
`O=[N+]([O-])c1cc([N+](=O)[O-])c(Nc2ccccn2)c([N+](=O)[O-])c1`: the inhibition was active: 62.9%.
On to `CCc1ccc(OP(C)(=O)O)cc1`, for which the inhibition was inactive: -5.74%.
Take `COc1ccccc1OP(C)(=O)Nc1ccc(C)cc1C` (stereo unspecified): the inhibition was inactive: -3.8%.
Regarding `CP(=O)(Nc1ccccn1)Oc1ccccc1` (stereo unspecified), the inhibition was inactive: -5.57%.
On to `COc1ccccc1OP(C)(=O)Nc1ccc(Br)cc1` (stereo unspecified), for which the inhibition is inactive: 1.93%.
Then `CN(C)CCOC(=O)C(O)(c1ccccc1)C1CCCC1` (stereo unspecified), with inactive: -9.22%.
Under `COc1ccc(OP(C)(=O)Nc2ccccn2)cc1` (stereo unspecified) stands inactive: -10.6%; under `Cc1nc2ccc3ccccc3c2o1.O=[N+]([O-])c1cc([N+](=O)[O-])c(O)c([N+](=O)[O-])c1`, inactive: 12.8%; under `CP(=O)(Nc1ccc(Cl)cc1Cl)Oc1ccccc1` (stereo unspecified), inactive: -16.1%.
On to `CP(=O)(OCCOc1ccccc1)OCCOc1ccccc1`, for which the inhibition is inactive: 11.1%.
Under `Cc1cc(C)cc(OP(C)(=O)Nc2cccc(C(F)(F)F)c2)c1` (stereo unspecified) stands inactive: 21.7%; under `COc1ccc(OP(C)(=O)Nc2ccccc2Br)cc1` (stereo unspecified), inactive: -1.2%.
`COc1ccccc1OP(C)(=O)Nc1ccc(C)c(C)c1` (stereo unspecified): the inhibition was inactive: -0.181%.
As for `Nc1ccc2c(ccc3cccnc32)n1.O=[N+]([O-])c1cc([N+](=O)[O-])c(O)c([N+](=O)[O-])c1`, the inhibition is inactive: -9.37%.
